The record followed here is paper PMC6323793 (BMC Cancer, 2019).

Protein sequences, listed by entry. Tags and fused reporters are not part of them. Lines headed by an entry give the natural chain unless they say otherwise; changes in a name come on top.
UniProt P30305: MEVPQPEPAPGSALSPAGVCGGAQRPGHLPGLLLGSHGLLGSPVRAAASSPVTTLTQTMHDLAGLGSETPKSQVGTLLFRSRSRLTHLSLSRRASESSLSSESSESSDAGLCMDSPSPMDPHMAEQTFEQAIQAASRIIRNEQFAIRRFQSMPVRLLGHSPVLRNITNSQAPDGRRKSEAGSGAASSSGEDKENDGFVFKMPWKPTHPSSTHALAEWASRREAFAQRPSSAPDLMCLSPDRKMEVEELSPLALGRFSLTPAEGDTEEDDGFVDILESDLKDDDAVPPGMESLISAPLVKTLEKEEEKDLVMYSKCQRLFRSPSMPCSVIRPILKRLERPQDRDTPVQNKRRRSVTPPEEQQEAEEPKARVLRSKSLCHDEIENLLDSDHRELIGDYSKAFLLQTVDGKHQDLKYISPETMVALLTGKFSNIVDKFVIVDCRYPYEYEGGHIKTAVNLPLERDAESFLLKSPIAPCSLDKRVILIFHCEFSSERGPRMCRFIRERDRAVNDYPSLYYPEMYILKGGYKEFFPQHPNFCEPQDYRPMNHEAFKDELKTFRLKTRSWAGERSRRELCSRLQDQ

The target in the assay is Cdc25B (Homo sapiens, UniProt P30305). Briefly: Dialysis assay of the Cdc25B-shikonin complex (reversibility). The settings on record: 0.2 μM Cdc25B, 50 μM shikonin, dialysis for 2, 4, 6 and 24 h.

For `CC(C)=CC[C@@H](O)C1=CC(=O)c2c(O)ccc(O)c2C1=O` [Shikonin], the “Activity of Cdc25B after dialysis (reversibility of inhibition)” value was “not rescued”.
